{"sequences": {"note": "Protein sequences, listed by entry. Tags and fused reporters are not part of them.", "UniProt P31424, whole entry": "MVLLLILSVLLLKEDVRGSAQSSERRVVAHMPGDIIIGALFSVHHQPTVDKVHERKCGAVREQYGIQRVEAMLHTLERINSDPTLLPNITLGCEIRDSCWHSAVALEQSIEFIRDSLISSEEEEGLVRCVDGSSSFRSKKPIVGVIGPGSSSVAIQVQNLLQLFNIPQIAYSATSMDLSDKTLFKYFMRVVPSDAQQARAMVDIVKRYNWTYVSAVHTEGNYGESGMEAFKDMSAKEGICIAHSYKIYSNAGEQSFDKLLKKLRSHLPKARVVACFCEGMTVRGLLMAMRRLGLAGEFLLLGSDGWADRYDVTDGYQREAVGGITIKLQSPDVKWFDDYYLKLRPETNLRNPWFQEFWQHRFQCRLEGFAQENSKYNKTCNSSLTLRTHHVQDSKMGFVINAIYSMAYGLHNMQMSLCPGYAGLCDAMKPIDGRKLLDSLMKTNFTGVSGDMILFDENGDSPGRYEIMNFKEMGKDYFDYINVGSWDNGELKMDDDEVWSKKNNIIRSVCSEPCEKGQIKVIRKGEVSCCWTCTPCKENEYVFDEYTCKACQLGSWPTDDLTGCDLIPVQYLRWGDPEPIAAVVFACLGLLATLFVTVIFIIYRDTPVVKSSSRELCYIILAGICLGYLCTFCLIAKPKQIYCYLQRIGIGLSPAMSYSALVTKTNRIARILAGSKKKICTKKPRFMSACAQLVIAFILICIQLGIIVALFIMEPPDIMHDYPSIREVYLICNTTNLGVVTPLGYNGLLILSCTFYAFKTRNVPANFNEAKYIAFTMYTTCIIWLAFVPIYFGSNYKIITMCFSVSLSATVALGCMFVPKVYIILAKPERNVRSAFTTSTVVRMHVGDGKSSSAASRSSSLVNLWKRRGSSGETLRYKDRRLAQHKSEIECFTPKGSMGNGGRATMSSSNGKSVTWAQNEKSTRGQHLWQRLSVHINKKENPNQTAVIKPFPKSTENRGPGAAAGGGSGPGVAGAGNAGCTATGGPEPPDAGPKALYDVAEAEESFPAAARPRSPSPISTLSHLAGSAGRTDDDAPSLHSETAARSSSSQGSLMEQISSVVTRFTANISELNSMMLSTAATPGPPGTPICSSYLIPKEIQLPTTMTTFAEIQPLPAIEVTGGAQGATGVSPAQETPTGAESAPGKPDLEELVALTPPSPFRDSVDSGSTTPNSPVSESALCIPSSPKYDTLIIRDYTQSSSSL"}, "source": "ChEMBL document CHEMBL1687701", "about": "“Discovery of N-Aryl Piperazines as Selective mGlu(5) Potentiators with Efficacy in a Rodent Model Predictive of Anti-Psychotic Activity” (ACS Med Chem Lett, 2010)", "target": "Metabotropic glutamate receptor 5 (Rattus norvegicus, UniProt P31424)", "test": "Negative allosteric modulation at rat mGluR5 receptor"}
{"smiles": "O=C(N1CCN(c2nccs2)CC1)C12CC3CC(CC(C3)C1)C2", "values": [{"measurement": "IC50", "result": 540, "unit": "nM"}, {"measurement": "Ki", "result": 440, "unit": "nM"}]}
